The entries are a selection whose mix differs from that of the whole data set. Some salts or complexes appear as unconnected parts, following the source record. Calls of active or inactive are those of the source. No stated cut-off is given here; in the data, active means survival enhancement above about 18%; inactive means the rest.

This test in a line: compounds raising survival of dissociated human iPSCs – cell-based, ATPlite luminescence, primary screen (AID 602274).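 Further: cells exposed to compounds for 16 hours before the ATP read.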 The following applies: hiPSC single-cell survival, at 20 µM, stronger effect = higher value, 100% = ROCK inhibitor wells, 0% = DMSO. A general note: ATP-based viability assays read luminescence as a measure of living cells.
Consider `CP(=O)(Nc1ccc(SC(F)(F)F)cc1)Oc1ccc(F)cc1` (configuration not stated), for which the survival enhancement is inactive: 1.2%. On to `CCOP(C)(=S)SCC(=O)NC(C)(CC)C(=O)O` (configuration not stated), for which the survival enhancement is inactive: 3.9%. For the molecule `CP(=O)(Nc1ccc2c(c1)OCCO2)Oc1ccccc1` (configuration not stated), the survival enhancement was inactive: -2.5%.

As to `O=[N+]([O-])c1cc([N+](=O)[O-])c(C(F)(F)F)c([N+](=O)[O-])c1O`, the survival enhancement was inactive: -0.6%. With `Cc1ccccc1NP(C)(=O)Nc1ccccc1C`, the survival enhancement is inactive: -1.4%. Take `CN(C)C1(CNC(=O)c2ccc(Cl)c(S(N)(=O)=O)c2)CCCCC1`: the survival enhancement was inactive: 0.1%. On to `COc1ccc(OP(C)(=O)Nc2cccc(Br)c2)cc1` (configuration not stated), for which the survival enhancement was inactive: 0.1%. `COc1ccc(NP(C)(=O)Oc2ccccc2OC)cc1` (configuration not stated): the survival enhancement was inactive: 1.7%. For `CN(C)CCOC(=O)C(O)(c1ccccc1)C1CCCCC1` (configuration not stated), the survival enhancement was inactive: -3.5%. Regarding `O=[N+]([O-])c1cc([N+](=O)[O-])c(NCC2CCS(=O)(=O)C2)c([N+](=O)[O-])c1` (configuration not stated), the survival enhancement was inactive: 0.5%.

For the molecule `Cc1cc(-c2cccc3ccccc23)c(C)cn1.O=[N+]([O-])c1cc([N+](=O)[O-])c(O)c([N+](=O)[O-])c1`, the survival enhancement is inactive: 2.5%.

Take `O=[N+]([O-])c1ccc(OP2(=O)COCCO2)cc1` (configuration not stated): the survival enhancement was inactive: -0.4%. `Cc1c(C(c2ccc3c(c2)OCO3)c2c(C)n(C)n(-c3ccccc3)c2=O)c(=O)n(-c2ccccc2)n1C.O=[N+]([O-])c1cc([N+](=O)[O-])c(O)c([N+](=O)[O-])c1`: the survival enhancement is inactive: -0.5%.

On to `CCN(CC)CCCNc1ccccc1[N+](=O)[O-].O=[N+]([O-])c1cc([N+](=O)[O-])c(O)c([N+](=O)[O-])c1`, for which the survival enhancement is inactive: -1.6%. As to `COc1ccc(OP(C)(=O)Nc2ccc(SC(F)(F)F)cc2)cc1` (configuration not stated), the survival enhancement was inactive: -1.6%. Under `CCOC(=O)c1ccc(NP(C)(=O)Oc2ccc(F)cc2)cc1` (configuration not stated) stands inactive: 1.7%.

`CCN(CC)CCCOC(=O)C(O)(c1ccccc1)C1CCCCC1` (configuration not stated): the survival enhancement is inactive: 3.4%. As to `Cc1c([N+](=O)[O-])cc([N+](=O)[O-])c(Br)c1[N+](=O)[O-]`, the survival enhancement is inactive: 2.6%.

For `CCCCCOc1ccc(NP(C)(=O)Oc2ccc(Cl)cc2Cl)cc1` (configuration not stated), the survival enhancement is inactive: -0.7%. For the molecule `O=[N+]([O-])c1cc([N+](=O)[O-])c(OC2CCCCC2O)c([N+](=O)[O-])c1` (configuration not stated), the survival enhancement is inactive: -0.3%. In the case of `CP(=O)(Nc1ccccc1)Oc1ccc(F)cc1` (configuration not stated), the survival enhancement was inactive: 2%. On to `O=[N+]([O-])c1cc([N+](=O)[O-])c(Nc2ccc(Cl)cc2)c([N+](=O)[O-])c1`, for which the survival enhancement was inactive: -3.2%.

Consider `CC(C)c1ccc(OP(C)(=O)Nc2ccc(SC(F)(F)F)cc2)cc1` (configuration not stated), for which the survival enhancement was inactive: 0.3%. Then `CP(=O)(Nc1ccccc1F)Oc1ccccc1` (configuration not stated), with inactive: -3.3%. Consider `O=C(OCCN1CCN(CCOCc2ccccc2)CC1)C(O)(c1ccccc1)c1ccccc1`, for which the survival enhancement is inactive: 3.6%. Regarding `O=C(OC1CN2CCC1CC2)c1ccc([N+](=O)[O-])cc1` (configuration not stated), the survival enhancement is inactive: -0.3%.

Turning to `COc1ccc2c(c1O)-c1c(O)c(OC)cc3c1[C@H](C2)[N+](C)(C)CC3.O=[N+]([O-])c1cc([N+](=O)[O-])c([O-])c([N+](=O)[O-])c1[O-]`, the survival enhancement is inactive: -1.2%.

As for `COc1ccccc1OP(C)(=O)Nc1ccc(Br)cc1` (configuration not stated), the survival enhancement was inactive: -0.7%.

In the case of `CN(C)CCOC(=O)C(O)(c1ccccc1)C1CCCC1` (configuration not stated), the survival enhancement is inactive: 0.2%. Take `COc1ccc(OP(C)(=O)Nc2ccccn2)cc1` (configuration not stated): the survival enhancement is inactive: 1.9%. With `Cc1c(NP(C)(=O)Oc2ccc(C(C)C)cc2)c(=O)n(-c2ccccc2)n1C` (configuration not stated), the survival enhancement is inactive: -1%.

In the case of `O=[N+]([O-])c1cc([N+](=O)[O-])c(Nc2ccccn2)c([N+](=O)[O-])c1`, the survival enhancement was inactive: -1.4%. Consider `CCc1ccc(OP(C)(=O)O)cc1`, for which the survival enhancement was inactive: -0.1%. On to `COc1ccccc1OP(C)(=O)Nc1ccc(C)cc1C` (configuration not stated), for which the survival enhancement was inactive: -1.9%. `CP(=O)(Nc1ccccn1)Oc1ccccc1` (configuration not stated): the survival enhancement is inactive: -1.5%. Under `Cc1cc(C)cc(OP(C)(=O)Nc2cccc(C(F)(F)F)c2)c1` (configuration not stated) stands inactive: -0.9%; under `O=C1C(O)=C([N+](=O)[O-])C(=O)C(O)=C1[N+](=O)[O-]`, inactive: -0.8%. Turning to `COc1ccc(OP(C)(=O)Nc2ccccc2Br)cc1` (configuration not stated), the survival enhancement is inactive: -0.1%.

`COc1ccccc1OP(C)(=O)Nc1ccc(C)c(C)c1` (configuration not stated): the survival enhancement was inactive: 5.1%. As to `CCCCCCCCCCCCCCCC1C[N+](C)(C)CCOP(C)(=O)O1` (configuration not stated), the survival enhancement was inactive: 3.7%.

Take `CP(=O)(Nc1ccc(Cl)cc1Cl)Oc1ccccc1` (configuration not stated): the survival enhancement is inactive: -0.8%. Take `CP(=O)(OCCOc1ccccc1)OCCOc1ccccc1`: the survival enhancement was inactive: 1%.

As for `CP(=O)(OC12CC3CC(CC(C3)C1)C2)OC12CC3CC(CC(C3)C1)C2`, the survival enhancement was inactive: 2.8%. Consider `CCOC(=O)c1ccc(NP(C)(=O)Oc2ccc(Cl)cc2)cc1` (configuration not stated), for which the survival enhancement is inactive: 4%. For the molecule `COc1ccc(OP(C)(=O)Nc2ccc(Br)cc2)cc1` (configuration not stated), the survival enhancement is inactive: -1%. Under `CCN(CC)CC(O)COC(=O)C(O)(c1ccccc1)C1CCCCC1` (configuration not stated) stands inactive: 2.6%. With `CCc1ccc(OP(C)(=O)Nc2cccnc2)cc1` (configuration not stated), the survival enhancement was inactive: 0.4%. Then `CP(=O)(Oc1ccccc1)N1CCOC1=O` (configuration not stated), with inactive: 2.3%; and `O=C(OCCCN1CCCC1)C(O)(c1ccccc1)C1CCCCC1` (configuration not stated), with inactive: -0.8%; and `COc1ccccc1OP(C)(=O)Nc1c(C)n(C)n(-c2ccccc2)c1=O` (configuration not stated), with inactive: -1.8%.

On to `CP(=O)(Nc1ccc(Cl)cc1)Oc1ccc(F)cc1` (configuration not stated), for which the survival enhancement is inactive: -0.8%.

Regarding `COc1ccccc1OP(C)(=O)Nc1ccccc1Br` (configuration not stated), the survival enhancement was inactive: -0.4%.

These data come from PubChem BioAssay AID602274 (Sanford-Burnham Center for Chemical Genomics, 2012).
